US20040023884A1, “Biologically active peptides from functional domains of bactericidal/permeability-increasing protein and uses thereof” (priority 1993, published 2004)

Tests used:
[1] = system: E. coli 0111:B4 (smooth) bacteria; test: Radial diffusion bactericidal assay, E. coli 0111:B4; format: cell-based; details: PROBIT analysis
[2] = In vitro heparin-mediated lengthening of APTT / clotting time of heparinized plasma; format: biochemical, human; details: FIG. 12g
Experimental: In vitro, the effect of BPI combination functional domain peptides was determined on heparin-mediated lengthening of activated partial […] (APTT). The APTT is lengthened by the presence of endogenous or exogenous inhibitors of thrombin formation, such as therapeutically administered heparin. Thus, agents which neutralize the anti-coagulant effects of heparin will reduce the APTT measured by the test. Citrated human plasma (200 μL) was incubated for 1 minute at 37° C. with either 15 μL of diluent (0.15 M NaCl, 0.1 M Tris-HCl, pH 7.4) or 15 μL of the diluent also containing 25 μg/mL heparin (187 units/mg). Various concentrations (from 0.0 to 56 μg/mL) of rBPI23, rBPI21Δcys, or BPI combination peptides BPI.29 (the DIII homodimer) and BPI.30 (heterodimer DII+DIII) in a volume of 15 μL were added, followed immediately by 100 μL of thrombin reagent (Catalog No. 845-4, Sigma Chemical Co., St. Louis. MO). Clotting time ([…]) was measured using a BBL Fibrometer (Becton Dickenson Microbiology Systems, Cockeysville, Md.). […] FIG. 12e illustrates the results obtained with BPI.30 on a non-log scale.

RAW 264.7 cells = test: LPS neutralization cellular proliferation assay, RAW 264.7 cells; format: cell-based, mouse
Experimental: In this assay, mouse RAW 264.7 cells (ATCC Accession No. T1B71), maintained in RPMI 1640 media (GIBCO), supplemented with 10 mM HEPES buffer (pH 7.4), 2 mM L-glutamine, penicillin (100U/mL), streptomcin (100 μg/mL), 0.075% sodium bicarbonate, […] 2-mercaptoethanol and 10% fetal bovine serum (Hyclone, Inc., Logan, Utah), were first induced by incubation in the presence of 50U/mL recombinant mouse y-interferon (Genzyme, Cambridge, Mass.) for 24 h prior to assay. Induced cells were then mechanically collected and centrifuged at 500×g at 4° C. and then resuspended in 50 mL RPMI 1640 media (without supplements), re-centrifuged and again resuspended in RPMI 1640 media (without supplements). The cells were counted and their concentration adjusted to 2×10^5 cells/mL and 100 μL aliquots were added to each well of a 96-well microtitre plate. The cells were then incubated for about 15 hours with E. coli O113 LPS (Control Standard. Assoc. of Cape Cod. Woods Hole, Mass.), which was added in 100 μL/well aliquots at a concentration of […] in serum-free RPMI 1640 media (this concentration being the result of titration experiments in which LPS concentration was varied between 50 pg/mL and 100 ng/mL). This incubation was performed in the absence or presence of BPI functional domain peptides in varying concentrations between 25 ng/mL and 50 μg/mL. Recombinant human BPI was used as a positive control at a concentration of 1 μg/mL. Cell proliferation was quantitatively measured by the addition of 1 μCi/well [^3H]-thymidine 5 hours after the time of initiation of the assay. After the 15-hour incubation, labeled cells were harvested onto glass fiber filters with a cell harvester (Inotech Biosystems, EQ-384, Sample Processing and Filter Counting System, Lansing, Mich.).

ATIII/heparin complexes = test: Thrombin inactivation by ATIII/heparin complexes (Chromostrate anti-thrombin assay); format: biochemical; details: 1.0 to 100 μg/mL
Experimental: BPI functional domain peptides BPI.2, BPI.3, BPI.4, BPI.5, BPI.6, and BPI.8, along with rBPI23 as a positive control, were assayed for their effect on thrombin inactivation by ATIII/heparin complexes according to the method of Example 3 in copending and co-assigned U.S. patent application Ser. No. 08/093,202, filed Jul. 15, 1993, incorporated by reference. Specifically, a Chromostrate™ anti-thrombin assay kit (Organon Teknika Corp., Durham, N.C.) was used to examine the inhibition of purified thrombin by preformed ATIII/heparin complexes in plasma.
Briefly, the assay was performed in 96 well microtiter plates in triplicate with a final volume per well of 200 μL. Varying concentrations of the BPI functional domain peptides ranging from 1.0 μg/mL to 100 μg/mL were assayed to determine their effect on thrombin inhibition in the presence of pre-formed ATIII/heparin complexes. […] The colorimetric reaction was quantitated on a microplate reader as described in Example 3.

[3] = 3H-heparin binding assay (affinity and capacity)
Experimental: Briefly, each fragment was added to wells of a 96-well microtiter plate having a polyvinylidene difluoride membrane (Immunobilon-P, Millipore, Bedford, Mass.) disposed at the bottom of the wells. […] Positive control wells contained varying amounts of rBPI23. […] DuPont-NEN, Wilmington, Del.) were made in the blocking buffer and incubated in the BPI peptide-containing wells for one hour at 4° C. The unbound heparin was aspirated and the wells were washed three times with blocking buffer, dried and removed for quantitation in a liquid scintillation counter (Model 1217, LKB, Gaithersburg, Md.). Although BSA in the blocking buffer did show a low affinity and capacity to bind heparin, this was considered physiologically irrelevant and the background was routinely subtracted from the test compound signal.

Structure (SMILES): CC[C@H](C)[C@H](NC(=O)[C@H](CCCCN)NC(=O)[C@H](CCCCN)NC(=O)[C@H](Cc1c[nH]cn1)NC(=O)[C@H](Cc1ccccc1)NC(=O)[C@H](CC(C)C)NC(=O)[C@H](CCC(N)=O)NC(=O)[C@@H](NC(=O)[C@H](CC(C)C)NC(=O)[C@H](Cc1c[nH]c2ccccc12)NC(=O)CNC(=O)[C@@H](NC(=O)[C@H](CCCCN)NC(=O)[C@H](CO)NC(=O)[C@H](CCCCN)NC(=O)[C@H](CO)NC(=O)[C@@H](NC(=O)[C@H](Cc1c[nH]cn1)NC(=O)[C@@H](NC(=O)[C@H](Cc1c[nH]cn1)NC(=O)[C@@H](N)C(C)C)C(C)C)[C@@H](C)CC)C(C)C)[C@@H](C)CC)C(=O)N[C@@H](CCC(=O)O)C(=O)O [BPI.5]
- pmol added to well to achieve a 30 mm^2 bactericidal zone, E. coli O111:B4 [1]: 7,343.30 pmol
- effect on the clotting time of heparinized blood (in words) [2]: less of a decrease in clotting times
- EC50 (peptide concentration at which the growth inhibitory effect of LPS was reversed by 50%) (RAW 264.7 cells): 5.3 ± 0.6 µg/mL
- IC50 (peptide concentration at which RAW cell growth was inhibited by 50%) (RAW 264.7 cells): — (No proliferation decrease up to 50 μg/ml)
- heparin neutralization effect (in words) (ATIII/heparin complexes): most significant heparin neutralization effects
- Kd [3]: 193 nM
- Heparin Capacity ([3]; heparin bound at saturation): 177.6 ng
